Experimental data: patent US11807835B2, “Detergent compositions containing a stabilized enzyme by phosphonates” (ECOLAB USA INC., priority 2016, dated 2023)

Test system: enzyme (protease, amylase, lipase)
Assay: Overall effects of phosphonates on enzyme activity (Table 3)
Type: biochemical
Details: overall effect of the phosphonate on enzyme activity in the detergent use solution

OCCN(CCO)CCO
Stability (effects on enzyme activity): Yes, when neu- tralized with a phos- phonate
